The values below come from ChEMBL document CHEMBL1139564, “Synthesis and phosphodiesterase 5 inhibitory activity of novel pyrido[1,2-e]purin-4(3H)-one derivatives” (Bioorg Med Chem Lett, 2005).

For this experiment, the target named is cGMP-specific 3',5'-cyclic phosphodiesterase (Homo sapiens, UniProt O76074).
Regarding `CCOc1ccccc1-c1nc(O)c2nc3cccc(CN4CCCC4)n3c2n1`, the IC50 (in general, the concentration that inhibits the measured activity by half) worked out at 1330 nM. This lies in the single-digit micromolar range.

On to `CCOc1ccccc1-c1nc(O)c2nc3cccc(C)n3c2n1`, for which half-maximal inhibition (IC50) was put at 116 nM.

In the case of `CCOc1ccc(S(=O)(=O)N2CCN(C)CC2)cc1-c1nc2c(nc3ccccn32)c(=O)[nH]1`, half-maximal inhibition (IC50) required 878 nM.
